Experiment: in vivo
Conditions: rat, rats

Compound: COCCOc1c(OC)cc(Cc2cnc(N)nc2N)cc1OC [substance B, 2,4-diamino-5-(3',5'-dimethoxy-4'-methyldioxyethylene-benzyl)-pyrimidine]
- LD50: 1360 mg/kg

Reference: US3992379A, “4-Alkyldioxyalkylene-5-benzylpyrimidines” (Ludwig Heumann & Co. GmbH, priority 1973, dated 1976)
